Our source for the IC50 values is patent publication US20180318473A1, “DRUGS WITH IMPROVED HYDROPHOBICITY FOR INCORPORATION IN MEDICAL DEVICES” (Abraxis BioScience, LLC, priority 2005, published 2018).

This data set deals with MX-1 mammary tumor cells.

The IC50 is the concentration that inhibits the measured activity by half. Higher therefore signals lower potency. As to Benzoyl rapamycin [Compound 23], the concentration for half-maximal inhibition (IC50) was determined as 10 µM.
